## Binding of CDR-mutated scFvs to a peptide of the spike HR2 region

Reference: Li et al. 2023, doi:10.1038/s41467-023-39022-2. File: FLAb, binding data.

Target peptide (SARS-CoV-2 spike, HR2 region): PDVDLGDISGINAS

Ab-14 is the parent antibody, in scFv form: VH, then a (GGGGS)3 linker, then VL. The light chain is unchanged in all variants.
VH: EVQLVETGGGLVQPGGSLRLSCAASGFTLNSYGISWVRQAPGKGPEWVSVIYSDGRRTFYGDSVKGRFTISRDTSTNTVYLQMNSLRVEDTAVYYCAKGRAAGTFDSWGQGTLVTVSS
VL: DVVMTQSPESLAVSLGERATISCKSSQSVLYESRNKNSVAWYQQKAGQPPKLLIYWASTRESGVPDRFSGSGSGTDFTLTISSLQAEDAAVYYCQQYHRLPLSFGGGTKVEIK

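The starting antibody came from a phage panning campaign against this peptide. These sequences belong to a second round, designed from the earlier measurements on random variants of the parent. Their group label is 14H_Ctrl (Ctrl: baseline library sampled from a position-specific scoring matrix, with some repeated check sequences). The assay is AlphaSeq: two haploid yeast populations carry antibody and antigen on their surface. After mating in shaken culture at 30 °C for 16 h, diploids were selected and their barcode pairs sequenced. Each replicate has its own calibration line, from reference interactions of the BCL2 family. There are six technical replicates.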

The parent's heavy chain CDRs are GFTLNSYGIS, VIYSDGRRTFYGDSVK, GRAAGTFDS; each variant's own CDRs replace them letter for letter.
Values are log10 of the apparent Kd in nM; lower means stronger binding.
"ND" means that the variant was in the library but no mating with the target was seen in that replicate; the authors take this as a sign of poor binding, and no number exists.
In the paper, a design with two or fewer of six values counts as a poor binder.
Of ten entries with the parent sequence, four were seen in most replicates (averages 0.34 to 2.37), three in one and three in none, so single entries are noisy.
A sequence measured in both rounds can read differently, since the two assays cover different ranges.
Three control strains display no target. For all heavy chain designs, 1% of the pairings with them gave a signal, with a median of 2.08 and one signal in twenty below 0.84, so weak values seen in few replicates may be background. For each scFv, signals with the empty controls are counted beside the result, with their mean in brackets.

CDR-H1 | CDR-H2 | CDR-H3 | log10 Kd, replicates | control signals
GFTLNSYGIS | VIYSDGRRTFYGDSVK | GAAAGTFDG | 1.11 / 1.21 / 1.77 / 1.15 / 1.38 / 1.24 | 0 of 18
GFTLNEYGIS | VIYSDGRRTFYGDSVK | GRAAGIFDS | ND / ND / ND / ND / ND / ND | 0 of 18
GETLKSYGIS | VIYSDGRRTSYDDSVK | GRAAGTFDS | -0.11 / 0.68 / 0.07 / 0.27 / 0.80 / 0.79 | 0 of 18
KFTLNSYGIS | VIYSDGRRTFYADDVE | GRAAQTNDS | ND / ND / ND / ND / ND / ND | 1 of 18 (1.43)
GETLNDYGIS | VIYSDGRRTFYGDSVK | GRAAGTFDT | ND / 1.63 / 3.03 / 1.88 / 1.96 / 1.40 | 0 of 18
GFTLNSYGIS | VIYSDGERTFYQDSVK | GRAAGTFDD | ND / 1.60 / ND / ND / 2.86 / 1.00 | 0 of 18
GFTLNDYGIS | VITSDGRRTFYGDSVK | GTADGTFDS | ND / ND / ND / ND / ND / ND | 0 of 18
KFTLNSYGIS | VIYSDGRRTFYIDSVK | GRCAGIFDS | ND / ND / ND / ND / ND / ND | 0 of 18
GFTLDSYGIS | VIYSDGRRTFYTDSVK | GREAGTFDL | -0.21 / 0.12 / ND / 0.31 / -0.28 / 0.14 | 0 of 18
GFTLNSYGIS | VIYSDGRRTSYGDSVK | GEAAGTFDS | 1.77 / ND / 0.44 / -0.50 / -0.32 / ND | 0 of 18
GFGLNSYGIS | VIYSDGRRTFYGDSVK | GRLAGTFDS | 1.48 / 2.06 / 2.73 / ND / 2.21 / 1.33 | 1 of 18 (2.44)
GFTLNSYGIS | VIYSDGMRTFYGDSVK | GFVTGTFDS | ND / ND / ND / ND / ND / ND | 0 of 18
GFALNSYGIS | VIYSDGRRTFYADSVK | GRAAYTFDS | ND / ND / ND / ND / ND / ND | 0 of 18
GFTLNSYGIS | VIYSDGRRTFYGDRVS | GRAAWGFDS | ND / ND / ND / ND / ND / ND | 0 of 18
QFTLNSYGIS | VIYSDGRRTMYGDDVK | GRAAGTFDL | ND / ND / ND / ND / ND / ND | 0 of 18
GFTLNSYGIS | VIYSDGRRTFYIDSVK | GRAAGTFDM | ND / ND / ND / ND / ND / ND | 0 of 18
GFTLNSYGIS | VIYADGRRTFYGDSVK | GRAQFTFDS | ND / ND / ND / ND / ND / ND | 0 of 18
GFTLNSYGIS | VMYSDGRRTFYTDSVK | GRAAGTFDS | ND / -0.37 / 0.45 / ND / -0.55 / ND | 0 of 18
GFTLNDYGIS | VIYSDGRRTFYGDSVK | GGIAGTFDS | -0.57 / -0.54 / -0.06 / -0.67 / -0.57 / -0.05 | 0 of 18
GFHLEEYGIS | VIYSDGRREFYGDSVK | GRAAGTFVS | 0.92 / 1.17 / 0.84 / 2.00 / 1.24 / 1.22 | 1 of 18 (1.48)
GHTLNSYGIS | VIYSDGMRTFYGDQVK | QRVAWTFPS | ND / ND / ND / ND / ND / ND | 0 of 18
GETLNSYGIS | VIYSDGRRTFYGDSVK | GRQAGTFDS | ND / 2.38 / 0.85 / 0.55 / 1.76 / 1.50 | 1 of 18 (2.45)
GFTLNSYGIS | VIYSDGWRTFYGDSVK | GEAAGTFDS | ND / ND / ND / ND / ND / ND | 2 of 18 (2.10)
GFTRNSYGIS | VIYSDGRRTIYGDSVK | GRAAGTFDS | ND / ND / ND / ND / ND / ND | 0 of 18
GFSLNSYGIS | VIYSDGRRTFYGDSVK | GRAACTFDS | ND / ND / ND / ND / ND / ND | 1 of 18 (1.71)
GFTLNSYGIS | VIYSDGRRTFYGDSVK | GRKAGKFKW | ND / ND / ND / ND / 3.21 / ND | 1 of 18 (2.18)
GFTPNSYGIS | VIYSDGRRTFIGDSVK | GREAGTFDC | ND / ND / ND / ND / ND / ND | 0 of 18
GFTLNSYGIS | VIYSDGYRTFYGDSVK | GRQADTFES | ND / ND / ND / ND / ND / ND | 0 of 18
GFTLNSYGIS | VIYSDGRRVFYGDSVK | GRGAGTFDS | ND / ND / ND / ND / ND / ND | 1 of 18 (1.83)
GFSLNSYGIS | VIYSDGRRTFYGDSVK | GRAAGTGDS | ND / ND / ND / ND / ND / ND | 0 of 18
TFTLNEYGIS | VIYSDGRRTFYGDSVK | GRWAGTFDS | ND / ND / ND / ND / ND / ND | 0 of 18
GQTLESYGIS | VIYSDGRRTFYGDKVK | GRVAGTFDG | ND / ND / ND / ND / ND / ND | 0 of 18
GFTINSYGIS | VIYSDGRRTFYGGSVK | GRAAGTFDS | 1.62 / ND / ND / ND / 1.99 / ND | 1 of 18 (1.36)
GFTLNSYGIS | VIYSDGRRTFYSDSVK | GRAAGTFDQ | 1.65 / 1.13 / 1.27 / 1.70 / 1.91 / 1.71 | 0 of 18
KFTLNSYGIS | VIYSDGRRTQYGDSVK | GRAAGTFDS | ND / ND / ND / ND / ND / 1.23 | 0 of 18
GFALNEYGIS | VIYSDGRRTFYGDSVK | GRAAGTFDS | 0.02 / -0.15 / 0.38 / 0.08 / 0.30 / 0.55 | 1 of 18 (1.15)
GFSLSSYGIS | VIYSDGRRTFYSDSEK | GRATGLFDG | ND / ND / ND / ND / ND / ND | 0 of 18
GFNLNSYGIS | VIYSDGRRTFYLDSVK | GRAAGTGDL | ND / ND / ND / ND / ND / ND | 0 of 18
GFELNSYGIS | VIYSDGRRTMYGDDVK | GMAAGTFDS | 2.50 / 1.97 / 1.40 / 1.29 / 3.82 / 1.89 | 1 of 18 (1.39)
GFTLASYGIS | VIYSDGCRTFYNDSVK | GRAAGTFDS | ND / ND / ND / ND / ND / ND | 0 of 18
GFTPNSYGIS | VIYSDGRRTFYGDSVD | GRGAGTFDS | ND / ND / ND / ND / ND / ND | 0 of 18
GFTLNEYGIS | VIYSDGRRTFYGDSVK | GRAAGDFDS | ND / ND / ND / ND / ND / ND | 0 of 18
GFSLNEYGIS | VIYSDGRRTFYGDSVK | GKAAGTFDS | 0.05 / -0.29 / -0.22 / -0.36 / -0.01 / 0.09 | 1 of 18 (1.54)

The closing 5 entries, repeated:

CDR-H1	CDR-H2	CDR-H3	log10 Kd, replicates	control signals
GFELNSYGIS	VIYSDGRRTMYGDDVK	GMAAGTFDS	2.50 / 1.97 / 1.40 / 1.29 / 3.82 / 1.89	1 of 18 (1.39)
GFTLASYGIS	VIYSDGCRTFYNDSVK	GRAAGTFDS	ND / ND / ND / ND / ND / ND	0 of 18
GFTPNSYGIS	VIYSDGRRTFYGDSVD	GRGAGTFDS	ND / ND / ND / ND / ND / ND	0 of 18
GFTLNEYGIS	VIYSDGRRTFYGDSVK	GRAAGDFDS	ND / ND / ND / ND / ND / ND	0 of 18
GFSLNEYGIS	VIYSDGRRTFYGDSVK	GKAAGTFDS	0.05 / -0.29 / -0.22 / -0.36 / -0.01 / 0.09	1 of 18 (1.54)